Data on one compound can be found in ChEMBL document CHEMBL1156238, “Allosteric inhibitors of hepatitis C virus NS5B polymerase thumb domain site II: structure-based design and synthesis of new templates” (Bioorg Med Chem, 2010).

In the assay the test system is Hepatitis C virus. The assay is described as follows: Antiviral activity against HCV infected in human HBI10A cells. It is filed as functional, organism-based, Hepacivirus hominis.

Take `O=C1c2cccc3c(NCCO)ccc(c23)C(=O)N1c1cccc(Br)c1`: the EC50 is 7.1 µM.
